Columns and labels:
[1] = target: T1, biotinylated soluble human IL-1RI ectodomain (human, UniProt P14778 18-336, biotinylated with EZ-Link Sulfo-NHS-SS-Biotin, approaching 2 mol biotin/mol receptor); assay: competition binding assay, plate-immobilized biotinylated IL-1RI ectodomain, competitor Eu-labeled IL-1α
T1 construct: extracellular domain; also called biotinylated IL-1RI; biotinylated human IL-1RI
T1 sequence (looked up): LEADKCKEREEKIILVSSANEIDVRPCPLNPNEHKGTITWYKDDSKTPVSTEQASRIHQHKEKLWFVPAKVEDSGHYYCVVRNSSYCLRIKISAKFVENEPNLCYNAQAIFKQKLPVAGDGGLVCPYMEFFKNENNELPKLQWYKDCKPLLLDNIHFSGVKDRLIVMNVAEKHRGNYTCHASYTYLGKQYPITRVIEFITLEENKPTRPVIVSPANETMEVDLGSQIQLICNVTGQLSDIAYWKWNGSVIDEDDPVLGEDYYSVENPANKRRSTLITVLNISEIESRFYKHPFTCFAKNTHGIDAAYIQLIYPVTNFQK

[2] = target: T2, human IL-1RI expressed on the cell surface (K299 cells; HeLa cells) (human, UniProt P14778 18-569); assay: cell-based or functional assay
T2 sequence (looked up): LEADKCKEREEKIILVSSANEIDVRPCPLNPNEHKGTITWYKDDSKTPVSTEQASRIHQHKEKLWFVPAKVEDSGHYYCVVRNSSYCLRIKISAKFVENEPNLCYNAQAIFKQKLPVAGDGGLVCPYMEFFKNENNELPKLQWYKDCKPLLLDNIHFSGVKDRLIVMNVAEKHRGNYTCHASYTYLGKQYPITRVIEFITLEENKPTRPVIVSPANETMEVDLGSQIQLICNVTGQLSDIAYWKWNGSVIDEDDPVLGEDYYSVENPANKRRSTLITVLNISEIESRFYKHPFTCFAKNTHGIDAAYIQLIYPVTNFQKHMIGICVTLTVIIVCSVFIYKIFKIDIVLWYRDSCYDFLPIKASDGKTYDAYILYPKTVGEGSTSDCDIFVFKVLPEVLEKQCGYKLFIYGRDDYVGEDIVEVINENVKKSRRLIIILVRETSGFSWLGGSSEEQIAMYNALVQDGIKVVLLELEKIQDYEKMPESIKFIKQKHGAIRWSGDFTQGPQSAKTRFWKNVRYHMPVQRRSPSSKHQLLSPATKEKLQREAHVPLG

[3] = target: T1, biotinylated soluble human IL-1RI …; assay: competition binding assay, plate-immobilized biotinylated IL-1RI ectodomain, competitor Eu-labeled IL-1β

B1: IL-1ra (ligand, human, UniProt P18510 26-177, looked up)
chain: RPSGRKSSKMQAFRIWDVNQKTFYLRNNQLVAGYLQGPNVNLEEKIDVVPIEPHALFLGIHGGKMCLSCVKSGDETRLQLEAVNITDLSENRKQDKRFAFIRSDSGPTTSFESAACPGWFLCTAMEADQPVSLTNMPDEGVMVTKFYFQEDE
notes: also called soluble IL-1ra; naturally-occurring IL-1R antagonist
IC50 [1]: 3.1 nM
IC50, inhibition of IL-1α-induced NF-κB nuclear translocation in HeLa cells [2]: 0.4 nM
IC50, inhibition of IL-1β-induced NF-κB nuclear translocation in HeLa cells [2]: 0.2 nM
IC50 [3]: 2.5 nM

From US20050282181A1 (published 2005)
